# Reference: publication PMC8467532, “DYRK1A Kinase Inhibitors Promote β-Cell Survival and Insulin Homeostasis” (Cells, 2021)
# Test system: INS-1E and MIN6 cells
# Experiment: Ki67 proliferation analysis
# Type: cell-based, rat, mouse
# Settings: TGF-β inhibitor alone
compound,measurement,value
"c1ccc(-c2n[nH]cc2-c2ccnc3ccccc23)nc1 [LY364947, 4-(3-(2-pyridinyl)-1H-pyrazol-4-yl)-quinoline, reference compound]",effect on cell proliferation,did not affect cell proliferation
